Laboratory results reported in ChEMBL document CHEMBL5329207, “Design, synthesis, and biological evaluation of diaminopyrimidine derivatives as novel focal adhesion kinase inhibitors” (RSC Med Chem, 2023).

By UniProt entry, the sequences of proteins in these tests, tags left out. Where a name states a change or a piece, a line headed by the entry shows the natural chain unless it says otherwise.
UniProt P08581: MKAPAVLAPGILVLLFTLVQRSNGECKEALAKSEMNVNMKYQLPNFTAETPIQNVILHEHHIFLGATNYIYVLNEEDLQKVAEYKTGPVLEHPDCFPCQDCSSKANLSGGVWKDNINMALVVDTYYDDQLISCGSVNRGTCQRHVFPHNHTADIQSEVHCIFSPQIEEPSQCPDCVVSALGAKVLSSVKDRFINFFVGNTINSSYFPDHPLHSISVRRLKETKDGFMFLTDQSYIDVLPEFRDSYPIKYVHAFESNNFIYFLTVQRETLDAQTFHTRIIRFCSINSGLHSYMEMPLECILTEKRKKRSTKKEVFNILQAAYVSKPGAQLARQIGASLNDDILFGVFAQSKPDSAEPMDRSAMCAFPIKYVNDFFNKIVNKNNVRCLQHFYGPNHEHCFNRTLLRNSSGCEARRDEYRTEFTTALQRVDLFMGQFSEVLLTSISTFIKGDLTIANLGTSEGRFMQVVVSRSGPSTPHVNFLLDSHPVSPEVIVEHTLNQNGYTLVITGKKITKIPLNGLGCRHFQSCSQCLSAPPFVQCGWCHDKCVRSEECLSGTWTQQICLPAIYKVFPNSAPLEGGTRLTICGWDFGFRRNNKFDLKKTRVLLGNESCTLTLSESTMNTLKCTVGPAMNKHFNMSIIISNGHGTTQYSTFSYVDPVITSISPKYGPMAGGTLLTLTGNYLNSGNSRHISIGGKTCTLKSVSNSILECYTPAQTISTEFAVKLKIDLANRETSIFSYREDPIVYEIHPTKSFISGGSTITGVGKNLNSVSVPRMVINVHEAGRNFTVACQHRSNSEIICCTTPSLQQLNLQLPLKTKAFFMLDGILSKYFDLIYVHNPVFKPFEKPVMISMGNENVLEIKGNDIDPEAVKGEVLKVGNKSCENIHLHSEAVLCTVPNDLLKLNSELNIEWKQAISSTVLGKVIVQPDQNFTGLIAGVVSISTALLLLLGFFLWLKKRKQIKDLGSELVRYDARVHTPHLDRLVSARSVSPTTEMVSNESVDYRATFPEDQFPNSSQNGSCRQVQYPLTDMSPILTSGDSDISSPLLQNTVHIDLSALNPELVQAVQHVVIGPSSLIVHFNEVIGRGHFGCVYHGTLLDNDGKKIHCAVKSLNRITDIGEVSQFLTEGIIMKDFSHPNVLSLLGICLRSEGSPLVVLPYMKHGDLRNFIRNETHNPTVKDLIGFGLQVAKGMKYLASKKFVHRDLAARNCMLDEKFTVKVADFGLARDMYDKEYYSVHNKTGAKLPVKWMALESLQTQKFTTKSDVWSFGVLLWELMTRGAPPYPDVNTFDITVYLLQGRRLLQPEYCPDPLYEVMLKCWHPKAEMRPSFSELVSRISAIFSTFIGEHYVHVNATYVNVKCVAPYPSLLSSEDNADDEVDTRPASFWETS
UniProt P28482, whole entry: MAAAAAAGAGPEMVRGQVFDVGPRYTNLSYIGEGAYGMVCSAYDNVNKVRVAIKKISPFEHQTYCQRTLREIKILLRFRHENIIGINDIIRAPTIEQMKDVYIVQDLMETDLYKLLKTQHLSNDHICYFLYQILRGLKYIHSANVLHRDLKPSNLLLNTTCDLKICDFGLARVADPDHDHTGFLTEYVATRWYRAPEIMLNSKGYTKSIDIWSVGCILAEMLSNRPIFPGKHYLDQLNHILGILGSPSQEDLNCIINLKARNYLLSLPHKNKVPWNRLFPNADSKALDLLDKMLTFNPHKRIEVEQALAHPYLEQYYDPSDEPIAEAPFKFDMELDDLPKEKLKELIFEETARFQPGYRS
UniProt Q9UM73: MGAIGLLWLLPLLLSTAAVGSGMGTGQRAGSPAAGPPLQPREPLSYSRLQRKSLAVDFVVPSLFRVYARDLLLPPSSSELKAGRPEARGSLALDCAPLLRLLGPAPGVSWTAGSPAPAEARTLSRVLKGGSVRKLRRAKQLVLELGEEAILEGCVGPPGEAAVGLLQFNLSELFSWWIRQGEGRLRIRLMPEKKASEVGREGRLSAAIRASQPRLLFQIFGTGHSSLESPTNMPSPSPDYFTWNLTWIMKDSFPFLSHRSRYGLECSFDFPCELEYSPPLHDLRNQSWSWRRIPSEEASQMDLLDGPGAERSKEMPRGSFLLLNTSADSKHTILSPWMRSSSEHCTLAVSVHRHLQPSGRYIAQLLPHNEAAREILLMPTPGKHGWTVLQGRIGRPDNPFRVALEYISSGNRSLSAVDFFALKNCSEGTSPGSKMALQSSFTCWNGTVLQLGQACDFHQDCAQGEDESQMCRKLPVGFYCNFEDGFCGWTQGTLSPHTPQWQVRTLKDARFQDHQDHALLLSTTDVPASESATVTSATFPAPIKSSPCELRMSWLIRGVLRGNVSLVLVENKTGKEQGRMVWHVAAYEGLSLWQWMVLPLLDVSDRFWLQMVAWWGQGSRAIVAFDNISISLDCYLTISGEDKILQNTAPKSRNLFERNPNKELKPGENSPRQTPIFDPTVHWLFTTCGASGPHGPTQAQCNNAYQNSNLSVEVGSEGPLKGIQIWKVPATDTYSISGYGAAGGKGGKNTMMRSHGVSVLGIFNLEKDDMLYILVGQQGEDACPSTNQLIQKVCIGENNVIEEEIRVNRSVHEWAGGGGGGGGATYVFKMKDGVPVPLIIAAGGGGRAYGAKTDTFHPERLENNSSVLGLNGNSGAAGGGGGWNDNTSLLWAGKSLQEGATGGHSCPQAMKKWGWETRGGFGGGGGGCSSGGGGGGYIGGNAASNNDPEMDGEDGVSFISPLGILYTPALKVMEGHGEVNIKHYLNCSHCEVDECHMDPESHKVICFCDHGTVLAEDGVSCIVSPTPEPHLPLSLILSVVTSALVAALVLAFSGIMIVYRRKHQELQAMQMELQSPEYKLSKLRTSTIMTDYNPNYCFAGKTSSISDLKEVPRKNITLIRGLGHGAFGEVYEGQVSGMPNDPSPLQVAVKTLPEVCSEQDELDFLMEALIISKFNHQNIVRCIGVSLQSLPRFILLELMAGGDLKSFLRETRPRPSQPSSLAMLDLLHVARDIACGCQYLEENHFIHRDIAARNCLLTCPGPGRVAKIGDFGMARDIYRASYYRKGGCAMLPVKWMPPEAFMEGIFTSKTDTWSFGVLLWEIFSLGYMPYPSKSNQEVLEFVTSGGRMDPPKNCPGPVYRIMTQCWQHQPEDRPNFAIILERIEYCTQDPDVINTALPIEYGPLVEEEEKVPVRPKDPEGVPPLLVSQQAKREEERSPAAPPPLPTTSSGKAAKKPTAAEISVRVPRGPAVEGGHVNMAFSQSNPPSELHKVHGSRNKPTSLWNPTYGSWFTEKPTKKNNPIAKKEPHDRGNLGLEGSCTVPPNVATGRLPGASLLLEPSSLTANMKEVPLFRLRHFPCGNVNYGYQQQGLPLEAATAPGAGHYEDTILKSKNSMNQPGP
UniProt Q06187: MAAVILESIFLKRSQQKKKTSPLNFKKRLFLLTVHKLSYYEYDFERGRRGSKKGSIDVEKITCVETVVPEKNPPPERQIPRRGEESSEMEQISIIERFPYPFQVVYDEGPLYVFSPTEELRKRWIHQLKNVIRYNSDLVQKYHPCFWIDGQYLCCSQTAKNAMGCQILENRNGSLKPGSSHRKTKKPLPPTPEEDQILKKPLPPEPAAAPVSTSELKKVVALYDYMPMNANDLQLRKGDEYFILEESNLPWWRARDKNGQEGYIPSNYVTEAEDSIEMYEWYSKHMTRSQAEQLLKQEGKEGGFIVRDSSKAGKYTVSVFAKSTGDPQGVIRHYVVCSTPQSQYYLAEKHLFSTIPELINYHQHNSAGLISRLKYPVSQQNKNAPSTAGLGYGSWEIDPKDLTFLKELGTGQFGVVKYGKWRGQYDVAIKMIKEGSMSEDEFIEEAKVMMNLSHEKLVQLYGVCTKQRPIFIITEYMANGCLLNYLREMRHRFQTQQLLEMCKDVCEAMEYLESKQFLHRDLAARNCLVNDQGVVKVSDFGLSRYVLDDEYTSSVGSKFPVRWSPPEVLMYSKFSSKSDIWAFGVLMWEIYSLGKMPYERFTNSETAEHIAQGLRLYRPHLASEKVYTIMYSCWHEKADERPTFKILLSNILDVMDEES
UniProt P31749: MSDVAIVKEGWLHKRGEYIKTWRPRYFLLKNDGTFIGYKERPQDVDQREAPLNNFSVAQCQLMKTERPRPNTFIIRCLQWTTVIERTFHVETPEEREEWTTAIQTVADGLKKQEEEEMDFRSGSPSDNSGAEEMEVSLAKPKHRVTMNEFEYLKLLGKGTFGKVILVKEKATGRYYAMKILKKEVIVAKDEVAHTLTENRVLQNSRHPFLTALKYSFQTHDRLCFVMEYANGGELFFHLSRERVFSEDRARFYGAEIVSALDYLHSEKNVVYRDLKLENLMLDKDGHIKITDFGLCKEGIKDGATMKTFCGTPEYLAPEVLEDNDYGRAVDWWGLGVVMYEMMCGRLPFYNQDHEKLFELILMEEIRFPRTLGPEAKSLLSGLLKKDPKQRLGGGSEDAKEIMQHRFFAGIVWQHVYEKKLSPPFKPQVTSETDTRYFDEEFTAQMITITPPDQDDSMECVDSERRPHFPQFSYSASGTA
UniProt P15056, whole entry: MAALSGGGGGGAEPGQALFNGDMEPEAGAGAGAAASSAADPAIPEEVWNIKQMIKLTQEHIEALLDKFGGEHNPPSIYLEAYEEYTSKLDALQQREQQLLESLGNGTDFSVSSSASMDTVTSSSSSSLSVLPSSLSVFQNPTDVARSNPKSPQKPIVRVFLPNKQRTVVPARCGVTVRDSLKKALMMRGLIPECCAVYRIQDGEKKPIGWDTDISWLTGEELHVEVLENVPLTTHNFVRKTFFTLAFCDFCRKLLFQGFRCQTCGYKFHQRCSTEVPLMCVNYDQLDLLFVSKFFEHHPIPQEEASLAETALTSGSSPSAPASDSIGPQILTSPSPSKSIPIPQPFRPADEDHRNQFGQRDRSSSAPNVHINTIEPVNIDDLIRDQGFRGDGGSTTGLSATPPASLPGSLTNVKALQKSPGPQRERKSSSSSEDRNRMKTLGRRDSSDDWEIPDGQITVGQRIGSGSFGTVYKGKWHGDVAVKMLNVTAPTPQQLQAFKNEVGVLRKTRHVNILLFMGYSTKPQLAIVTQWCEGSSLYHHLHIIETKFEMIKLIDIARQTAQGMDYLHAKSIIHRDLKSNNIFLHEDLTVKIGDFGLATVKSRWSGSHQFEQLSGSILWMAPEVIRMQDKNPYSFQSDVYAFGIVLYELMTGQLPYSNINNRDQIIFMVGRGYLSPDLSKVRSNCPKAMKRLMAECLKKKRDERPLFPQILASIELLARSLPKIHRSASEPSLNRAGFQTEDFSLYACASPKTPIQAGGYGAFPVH
UniProt P10721, whole entry: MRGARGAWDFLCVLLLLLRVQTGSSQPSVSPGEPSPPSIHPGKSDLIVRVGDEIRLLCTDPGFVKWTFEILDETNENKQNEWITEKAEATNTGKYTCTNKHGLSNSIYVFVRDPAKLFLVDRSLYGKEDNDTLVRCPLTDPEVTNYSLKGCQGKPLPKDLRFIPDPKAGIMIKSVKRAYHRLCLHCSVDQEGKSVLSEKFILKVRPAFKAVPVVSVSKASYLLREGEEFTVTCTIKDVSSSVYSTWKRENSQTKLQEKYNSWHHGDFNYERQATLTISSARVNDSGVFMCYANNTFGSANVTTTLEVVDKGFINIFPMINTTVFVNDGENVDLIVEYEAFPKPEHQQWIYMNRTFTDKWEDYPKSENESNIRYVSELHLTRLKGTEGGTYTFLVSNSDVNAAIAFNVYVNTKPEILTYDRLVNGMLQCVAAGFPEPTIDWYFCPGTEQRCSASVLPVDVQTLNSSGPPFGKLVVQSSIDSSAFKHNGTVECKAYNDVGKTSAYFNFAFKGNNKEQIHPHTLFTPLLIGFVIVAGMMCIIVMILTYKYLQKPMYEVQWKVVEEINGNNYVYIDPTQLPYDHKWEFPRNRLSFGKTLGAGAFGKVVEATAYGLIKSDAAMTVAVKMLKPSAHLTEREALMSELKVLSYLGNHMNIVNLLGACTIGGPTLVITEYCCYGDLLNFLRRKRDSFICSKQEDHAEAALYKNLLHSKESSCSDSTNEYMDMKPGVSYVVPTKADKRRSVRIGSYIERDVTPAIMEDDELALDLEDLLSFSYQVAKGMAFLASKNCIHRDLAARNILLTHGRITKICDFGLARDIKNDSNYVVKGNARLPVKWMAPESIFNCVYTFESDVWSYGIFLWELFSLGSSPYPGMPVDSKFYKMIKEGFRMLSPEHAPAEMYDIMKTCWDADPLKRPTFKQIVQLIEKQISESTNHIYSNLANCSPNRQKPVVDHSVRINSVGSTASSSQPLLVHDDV

How the values were obtained:
[1] = target: Hepatocyte growth factor receptor (Homo sapiens) (UniProt P08581); assay: Inhibition of cMet (unknown origin) at 1 uM relative to control
[2] = target: Serine/threonine-protein kinase mTOR (Homo sapiens) (UniProt P42345); assay: Inhibition of mTOR (unknown origin) at 1 uM relative to control
[3] = target: T1, Tyrosine-protein kinase ZAP-70 (Homo sapiens) (UniProt P43403); assay: Inhibition of ZAP70 (unknown origin) at 1 uM relative to control
T1 sequence (whole entry): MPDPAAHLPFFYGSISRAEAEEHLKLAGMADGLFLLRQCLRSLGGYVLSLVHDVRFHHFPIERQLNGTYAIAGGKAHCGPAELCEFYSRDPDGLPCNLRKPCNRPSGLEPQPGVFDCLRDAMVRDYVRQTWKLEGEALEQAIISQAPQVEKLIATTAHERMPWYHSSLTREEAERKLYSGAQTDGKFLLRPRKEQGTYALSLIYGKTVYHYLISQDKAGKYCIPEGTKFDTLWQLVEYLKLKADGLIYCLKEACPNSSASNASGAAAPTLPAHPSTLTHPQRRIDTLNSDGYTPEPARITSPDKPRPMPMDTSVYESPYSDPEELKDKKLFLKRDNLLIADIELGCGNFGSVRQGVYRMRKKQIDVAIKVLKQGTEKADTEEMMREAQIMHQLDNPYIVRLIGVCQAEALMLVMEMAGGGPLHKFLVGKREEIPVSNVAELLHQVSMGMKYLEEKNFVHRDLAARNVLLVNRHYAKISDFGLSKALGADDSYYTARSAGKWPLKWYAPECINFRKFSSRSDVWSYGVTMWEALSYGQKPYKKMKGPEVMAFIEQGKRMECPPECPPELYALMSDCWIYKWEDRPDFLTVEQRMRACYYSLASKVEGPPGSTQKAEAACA

[4] = target: T2, Serine/threonine-protein kinase Chk1 (Homo sapiens) (UniProt O14757); assay: Inhibition of CHK1 (unknown origin) at 1 uM relative to control
T2 sequence (whole entry): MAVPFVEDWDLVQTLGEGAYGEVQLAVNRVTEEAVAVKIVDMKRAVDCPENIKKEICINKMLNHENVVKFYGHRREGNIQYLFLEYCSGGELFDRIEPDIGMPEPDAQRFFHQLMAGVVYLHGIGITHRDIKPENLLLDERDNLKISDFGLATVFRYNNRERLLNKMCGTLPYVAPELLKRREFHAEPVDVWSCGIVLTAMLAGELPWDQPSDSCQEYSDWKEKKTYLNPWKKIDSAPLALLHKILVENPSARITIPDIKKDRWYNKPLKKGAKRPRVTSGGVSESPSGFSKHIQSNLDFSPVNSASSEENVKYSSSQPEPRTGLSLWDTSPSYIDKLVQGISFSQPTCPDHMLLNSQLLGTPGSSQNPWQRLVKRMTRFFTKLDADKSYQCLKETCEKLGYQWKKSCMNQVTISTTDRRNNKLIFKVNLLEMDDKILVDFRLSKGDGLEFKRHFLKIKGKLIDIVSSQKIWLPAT

[5] = target: Mitogen-activated protein kinase 1 (Homo sapiens) (UniProt P28482); assay: Inhibition of ERK2 (unknown origin) at 1 uM relative to control
[6] = target: T3, Serine/threonine-protein kinase PLK4 (Homo sapiens) (UniProt O00444); assay: Inhibition of PLK4 (unknown origin) at 1 uM relative to control
T3 sequence (whole entry): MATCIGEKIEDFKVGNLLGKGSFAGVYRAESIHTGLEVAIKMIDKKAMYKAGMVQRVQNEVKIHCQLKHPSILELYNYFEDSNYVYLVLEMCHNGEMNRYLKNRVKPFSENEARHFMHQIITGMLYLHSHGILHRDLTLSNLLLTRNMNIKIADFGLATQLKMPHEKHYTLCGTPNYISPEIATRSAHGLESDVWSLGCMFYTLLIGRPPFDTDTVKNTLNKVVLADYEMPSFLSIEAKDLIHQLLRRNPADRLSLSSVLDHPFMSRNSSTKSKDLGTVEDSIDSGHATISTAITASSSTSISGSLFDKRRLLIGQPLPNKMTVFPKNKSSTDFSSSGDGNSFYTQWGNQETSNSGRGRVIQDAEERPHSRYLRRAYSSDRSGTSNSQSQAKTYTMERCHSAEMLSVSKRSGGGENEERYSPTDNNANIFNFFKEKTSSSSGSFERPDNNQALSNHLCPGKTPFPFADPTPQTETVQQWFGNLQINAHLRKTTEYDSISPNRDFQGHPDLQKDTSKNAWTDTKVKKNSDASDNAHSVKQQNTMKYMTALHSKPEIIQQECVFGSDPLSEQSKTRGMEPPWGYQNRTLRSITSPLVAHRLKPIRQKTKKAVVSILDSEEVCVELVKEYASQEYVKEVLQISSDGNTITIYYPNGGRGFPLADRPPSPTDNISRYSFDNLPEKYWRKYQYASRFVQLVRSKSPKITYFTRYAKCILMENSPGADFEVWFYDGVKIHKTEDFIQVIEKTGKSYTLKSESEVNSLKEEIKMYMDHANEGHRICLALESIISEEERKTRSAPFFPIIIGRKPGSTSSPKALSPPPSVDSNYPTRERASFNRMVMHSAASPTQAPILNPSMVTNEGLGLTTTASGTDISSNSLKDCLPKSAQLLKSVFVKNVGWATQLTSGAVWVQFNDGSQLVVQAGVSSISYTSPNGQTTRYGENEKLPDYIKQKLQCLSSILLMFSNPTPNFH

[7] = target: ALK tyrosine kinase receptor (Homo sapiens) (UniProt Q9UM73); assay: Inhibition of ALK (unknown origin) at 1 uM relative to control
[8] = target: Tyrosine-protein kinase BTK (Homo sapiens) (UniProt Q06187); assay: Inhibition of BTK (unknown origin) at 1 uM relative to control
[9] = target: RAC-alpha serine/threonine-protein kinase (Homo sapiens) (UniProt P31749); assay: Inhibition of AKT1 (unknown origin) at 1 uM relative to control
[10] = target: Serine/threonine-protein kinase B-raf (Homo sapiens) (UniProt P15056); assay: Inhibition of BRAF (unknown origin) at 1 uM relative to control
[11] = target: Mast/stem cell growth factor receptor Kit (Homo sapiens) (UniProt P10721); assay: Inhibition of KIT (unknown origin) at 1 uM relative to control

Compound: CP(C)(=O)c1ccccc1Nc1nc(Nc2ccc(C(=O)NC3CCOCC3)cc2)ncc1Cl
- inhibition [1]: 85%
- inhibition [2]: 2%
- inhibition [3]: 4%
- inhibition [4]: 33%
- inhibition [5]: 5%
- inhibition [6]: 98%
- inhibition [7]: 97%
- inhibition [8]: 8%
- inhibition [9]: 10%
- inhibition [10]: 43%
- inhibition [11]: 27%
